Measured values as given in ChEMBL document CHEMBL1137770, “Biological activity of endomorphin and [Dmt1]endomorphin analogs with six-membered proline surrogates in position 2” (Bioorg Med Chem, 2009).

Species: Rattus norvegicus
Assay: Selectivity ratio of IC50 for delta opioid receptor to IC50 for mu opioid receptor in Wistar rat brain membrane
Assay type: cell membranes
In short: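 Wistar rat brain crude membranes incubated 120 min at 25 °C with peptide and 0.5 nM [3H]DAMGO (MOR) or 0.5 nM [3H][Ile5,6]deltorphin-2 (DOR) in 50 mM Tris/HCl pH 7.4 with 5 mM MgCl2, 1 mM EDTA, 100 mM NaCl, bacitracin.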

**Q.** For `NC(=O)[C@H](Cc1ccccc1)NC(=O)[C@H](Cc1ccccc1)N(C=O)C1CCN(C(=O)[C@@H](N)Cc2ccc(O)cc2)CC1`, which Ratio IC50 is on record?
**A.** > 5.36
